Values of other authors, collected in article PMC9434702 (Journal of medicinal chemistry, 2022).
pIC50: −log10 of the molar value.

The chains behind the UniProt entries cited, without tags or fusion partners. Residues count along the entry.
UniProt Q14416, 19-872: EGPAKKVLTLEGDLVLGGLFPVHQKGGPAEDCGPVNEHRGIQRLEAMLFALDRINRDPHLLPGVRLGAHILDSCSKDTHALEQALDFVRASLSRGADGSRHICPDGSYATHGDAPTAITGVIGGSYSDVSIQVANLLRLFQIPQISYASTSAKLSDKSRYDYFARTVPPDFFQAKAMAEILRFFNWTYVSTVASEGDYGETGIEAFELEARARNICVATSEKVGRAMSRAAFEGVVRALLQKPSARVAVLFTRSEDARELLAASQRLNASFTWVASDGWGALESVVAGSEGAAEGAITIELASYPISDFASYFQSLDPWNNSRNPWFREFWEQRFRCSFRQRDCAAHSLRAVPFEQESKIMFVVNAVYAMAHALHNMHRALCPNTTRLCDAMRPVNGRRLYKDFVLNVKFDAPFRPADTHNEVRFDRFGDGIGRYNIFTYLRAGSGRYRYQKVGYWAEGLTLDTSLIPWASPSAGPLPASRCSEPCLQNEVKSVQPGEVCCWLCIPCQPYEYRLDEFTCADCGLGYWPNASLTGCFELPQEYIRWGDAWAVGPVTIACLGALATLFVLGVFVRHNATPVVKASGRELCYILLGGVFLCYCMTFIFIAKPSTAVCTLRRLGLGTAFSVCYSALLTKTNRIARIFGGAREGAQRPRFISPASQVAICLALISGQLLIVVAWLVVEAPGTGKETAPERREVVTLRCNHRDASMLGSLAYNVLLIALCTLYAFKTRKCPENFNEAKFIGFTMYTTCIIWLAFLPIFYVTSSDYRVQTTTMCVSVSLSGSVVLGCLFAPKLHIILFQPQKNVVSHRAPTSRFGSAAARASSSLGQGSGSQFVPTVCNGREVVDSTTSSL

Target: mGluR2 (Homo sapiens, UniProt Q14416)
Conditions: mGluR2 NAM; cited from earlier work

## COc1ccc(-c2cc(C(N)=O)nc3cc(CN4C(=O)CCC4=O)ccc23)c(F)c1 [compound 7]
  pIC50: 7.35
